## AlphaSeq binding of Ab-14 light chain variants to a spike HR2 peptide

Antigen: PDVDLGDISGINAS, a 14-residue peptide of the SARS-CoV-2 spike HR2 region.

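The library (AAYL50) carries one to three amino acid substitutions per variant, with no insertions or deletions. The scFvs were displayed on barcoded MATa yeast, the peptide on MATalpha yeast. The frequency of each diploid, read from paired DNA barcodes, reflects how well the two displayed proteins bind. A regression on co-assayed BCL2-family reference pairs converts the normalised counts of each replicate to an apparent Kd. There are three technical replicates.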

Parent scFv Ab-14: VH joined to VL by a 15-residue (Gly4Ser)3 linker. Changes lie in the light chain CDRs alone.
VH: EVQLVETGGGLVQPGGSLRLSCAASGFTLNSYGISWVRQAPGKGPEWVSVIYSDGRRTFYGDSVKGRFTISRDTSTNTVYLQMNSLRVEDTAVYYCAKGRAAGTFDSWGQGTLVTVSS
VL: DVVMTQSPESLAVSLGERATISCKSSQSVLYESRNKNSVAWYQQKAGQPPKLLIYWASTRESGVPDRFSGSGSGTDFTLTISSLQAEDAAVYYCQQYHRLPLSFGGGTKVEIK

Variants are written as CDR1, CDR2 and CDR3 of the light chain (limits as in the source). Parent: KSSQSVLYESRNKNSVA, WASTRES, QQYHRLPLS. Every variant below is changed at A40 of the VL (sequential numbering). Kd is apparent (estimated from mating counts) and averaged on the log scale over replicates with a signal. Smaller is tighter. A pair that was not seen in any replicate is written "nd"; this usually means weak binding, but a binder can also be missed.

For KSSQSVAYESRNKNEVK / WASTRES / QQYHRLPLS, the assay gave nd (0 of 3 replicates). Variant KSSQSVLYESRNKNSVV / WNSTRES / QQYHRLPLN showed nd (0 of 3 replicates). Variant KSSQGVLYESRNKNSTN / WASTRES / QQYHRLPLS showed nd (0 of 3 replicates). Variant KSSQSVLYESRNKNSVL / WASTRES / QNYHRLHLS gave nd (0 of 3 replicates). With TSSQSVLYESRNKNSVR / WASTRES / QQGHRLPLS the result was 28 µM (2 of 3 replicates).

Variant KSSQSVLYESRNMNSVW / KASTRES / QQYHRLPLS showed nd (0 of 3 replicates). Variant KSSQSVLKESRNKNSVV / WASTTES / QQYHRLPLS showed nd (0 of 3 replicates). For KSSQSVLYESRNKNSVQ / WASTRES / QCYHRLQLS, the assay gave 4.0 µM (1 of 3 replicates). For KSSQSVLYESRNKNSVP / WAMTRYS / QQYHRLPLS, the assay gave nd (0 of 3 replicates). With KSSQSVLFESRNKNHVE / WASTRES / QQYHRLPLS the result was 4.9 µM (1 of 3 replicates).

Variant ISSCSVLYESRNKNSVS / WASTRES / QQYHRLPLS showed nd (0 of 3 replicates). For KSSQSVLYESRKKNSVN / WASTRES / QQYHRLPHS, the assay gave 78 µM (2 of 3 replicates). Variant KSSQSVLYESRNKNSVM / WASTRCS / QQYHRLSLS gave 65 µM (3 of 3 replicates). Variant KSSQSVLYESRWKNSVE / WASTRES / QQYHRLPLS gave nd (0 of 3 replicates). For KSSQSVFYSSRNKNSVG / WASTRES / QQYHRLPLS, the assay gave 8.5 µM (1 of 3 replicates).

Variant KSSQSVLYESRNKNSVG / WASTREY / QQYHRMPLS gave nd (0 of 3 replicates). Variant KSSQSVLYEHPNKNSVL / WASTRES / QQYHRLPLS showed nd (0 of 3 replicates). With KFSQSVLYESRNKNSVT / WASTRES / QQYHRLPLS the result was nd (0 of 3 replicates). Variant KSSQSVLWESRNKNSVH / WAVTRES / QQYHRLPLS showed nd (0 of 3 replicates). With KSSQQVLYESRNKNSVR / WASTRES / EQYHRLPLS the result was nd (0 of 3 replicates).

With KSSQSVYYESRNKNSVL / WASTRES / QQYHRLPLS the result was 32 µM (2 of 3 replicates). For LSSQSVLYESRNKNSVY / WASTRES / KQYHRLPLS, the assay gave 340 µM (1 of 3 replicates). For KSSQSVLYESRNKNSVG / WASTRES / QQYHPRPLS, the assay gave nd (0 of 3 replicates). Variant KNSQSVLWESRNKNSVL / WASTRES / QQYHRLPLS gave nd (0 of 3 replicates). Variant KSSFSVLYESRNKNSVI / WASTRES / QQYHRLPLS gave nd (0 of 3 replicates).

For KSSQSVLYESRNKNSVL / WASTRES / QQLDRLPLS, the assay gave 39 µM (3 of 3 replicates). For KSSQSVLFESRNKNSVL / WASTRES / QCYHRLPLS, the assay gave nd (0 of 3 replicates). Variant KNSQSVLYESENKNSVL / WASTRES / QQYHRLPLS gave 740 µM (1 of 3 replicates). For KSSQSVLYESRNKNSVE / IHSTRES / QQYHRLPLS, the assay gave nd (0 of 3 replicates). Variant KSSGSVLYESRNKNSVC / WASTRES / QQYHRYPLS gave 5.1 µM (1 of 3 replicates).

With KSSQSVNYESRNKNSVE / WASTRES / QQYHRLPLQ the result was nd (0 of 3 replicates). Variant KSSQSVLYESRNKNSVM / WASTRES / QQYTRLPDS showed 40 µM (1 of 3 replicates). Variant KSSQSVLYESRNKNSVK / WRSTRES / QQYHMLPLS showed 130 µM (1 of 3 replicates).

Nonspecific signal, from three strains lacking the peptide, appeared in 18% of pairings of library AAYL50, centred on 15 µM (5% of these signals below 970 nM); values are not corrected for it.

The measurements come from Engelhart et al. 2022 (doi:10.1038/s41597-022-01779-4) through the FLAb antibody collection.